Assay results: patent publication US20240408094A1, “INHIBITION OF USP7 INDUCES P53-INDEPENDENT TUMOR GROWTH SUPPRESSION IN TRIPLE-NEGATIVE BREAST CANCERS BY DESTABILIZING FOXM1” (The Trustees of Columbia University in the City of New York, priority 2023, published 2024)

By UniProt entry, the sequences of proteins in these tests, tags left out.
UniProt Q93009, whole entry: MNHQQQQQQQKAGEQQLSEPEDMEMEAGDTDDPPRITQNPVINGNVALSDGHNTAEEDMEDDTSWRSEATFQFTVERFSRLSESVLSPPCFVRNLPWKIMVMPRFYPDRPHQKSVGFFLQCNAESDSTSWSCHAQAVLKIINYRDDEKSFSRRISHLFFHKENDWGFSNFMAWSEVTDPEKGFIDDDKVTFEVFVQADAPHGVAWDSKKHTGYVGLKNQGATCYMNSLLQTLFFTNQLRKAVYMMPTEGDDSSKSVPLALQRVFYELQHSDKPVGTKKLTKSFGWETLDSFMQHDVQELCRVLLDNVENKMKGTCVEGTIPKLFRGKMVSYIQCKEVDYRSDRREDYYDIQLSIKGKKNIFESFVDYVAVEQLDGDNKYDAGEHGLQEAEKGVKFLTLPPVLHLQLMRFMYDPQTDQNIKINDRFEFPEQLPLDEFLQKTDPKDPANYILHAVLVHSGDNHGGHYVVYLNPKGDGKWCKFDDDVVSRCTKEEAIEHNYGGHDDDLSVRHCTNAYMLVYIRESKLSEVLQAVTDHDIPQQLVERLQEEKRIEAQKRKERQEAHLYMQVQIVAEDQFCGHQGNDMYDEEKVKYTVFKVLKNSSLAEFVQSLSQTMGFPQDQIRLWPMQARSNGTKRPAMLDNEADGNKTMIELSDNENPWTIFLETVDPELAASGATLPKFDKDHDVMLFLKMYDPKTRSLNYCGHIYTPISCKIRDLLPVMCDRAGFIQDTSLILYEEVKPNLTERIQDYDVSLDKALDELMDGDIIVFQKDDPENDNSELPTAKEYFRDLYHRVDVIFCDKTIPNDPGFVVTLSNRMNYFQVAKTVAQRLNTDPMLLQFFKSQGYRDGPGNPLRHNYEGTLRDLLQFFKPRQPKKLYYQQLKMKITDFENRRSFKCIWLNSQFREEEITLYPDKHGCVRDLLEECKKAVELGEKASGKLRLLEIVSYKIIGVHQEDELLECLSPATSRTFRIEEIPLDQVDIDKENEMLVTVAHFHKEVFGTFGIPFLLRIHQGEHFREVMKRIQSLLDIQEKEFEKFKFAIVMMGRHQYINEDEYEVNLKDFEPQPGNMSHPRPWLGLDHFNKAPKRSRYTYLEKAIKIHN

Tests used:
[1] = target: USP7 (Homo sapiens, UniProt Q93009); assay: USP7 protein half-life (cycloheximide chase) in CAL33 cells; settings: CAL33, 10 μM 48 h then cycloheximide; without treatment over 24 h
Description: USP7 protein levels were detected by immunoblots. […] USP7 protein levels were measured by immunoblots. […] USP7 protein levels were detected by immunoblots, then quantified by ImageJ after normalized to internal control β-actin. Half maximal degradation concentration (DC50) was calculated by Graphpad Prism.
To specifically degrade USP7, a set of 66 PROTAC compounds were designed and synthesized that contain an USP7 specific binding moiety XL177A and an E3 ubiquitin ligase (CRBN or VHL) binding moiety connected by different linkers. All putative USP7 PROTACs were used to treat CAL33 cells that express high levels of USP7 protein, and then the USP7 protein levels were determined by western blot (FIGS. 10A and 10B). Through initial screening, PU7-1 was identified as a potential USP7 degrader (FIG. 3A and FIG. 10). […] The effect of PU7-1 was also tested in several human cancer cells harboring wild-type p53. […] In addition, to exclude the possibility that PU7-1 affects the USP7 protein levels by regulating its transcription, a quantitative real-time PCR was performed in CAL33 treated with PU7-1 for 72 h. […] In addition, the half-life of USP7 protein was examined in CAL33 cells in the presence or absence of PU7-1 treatment. […] CAL33 were also treated with the different dosage of PU7-1 ranging from 0.0001 to 10 µM for 24 h. […]

[2] = test system: FOXM1; assay: FOXM1 protein half-life (cycloheximide chase) in CAL33 cells; format: cell-based, human; settings: CAL33, 10 μM 48 h then cycloheximide; without treatment more than 6 hours
Description: FIGS. 4F and 4G show CAL33 cells treated with or without 10 μM of PU7-1 for 96 h. Total RNA was extracted and subjected to RNAseq analysis. Differentially expressed genes were further analyzed. Heatmap in FIG. 4G represents the downregulation of known FOXM1 target genes.

[3] = test system: MDA-MB-468 FOXM1 overexpression cells xenografts; assay: MDA-MB-468 FOXM1 overexpression xenograft mouse model; format: in vivo, nude mice; settings: doxycycline diet, 37.5 mg/kg intraperitoneally
Excerpt: To investigate if PU7-1-mediated effects in TNBC depend on FOXM1, it was first attempted to establish a FOXM1 crispr knockout cell line. Unfortunately, it was not possible to generate the FOXM1 knockout cell line, likely because FOXM1 is an essential gene for cell survival. […] Alternatively, an inducible FOXM1 overexpression cell line was generated in MDA-MB-468 cells (MDA-MB-468 FOXM1 cells). Doxycycline induces high levels of FOXM1 expression in MDA-MB-468 FOXM1 overexpression cells (FIG. 6A). The effects of PU7-1 on cell proliferation were compared in control and doxycycline-treated MDA-MB-468 FOXM1 cells using BrdU incorporation assay. […] Next, the role of FOXM1 in PU7-1-induced tumor suppression was tested. MDA-MB-468 FOXM1 overexpression cells were subcutaneously inoculated into 6-8-week female nude mice fed with doxycycline diet at the dosage of 625 mg/kg to induce exogenous FOXM1 expression. On day 7 after inoculation, mice were randomly separated into two groups. At the endpoint, tumors were dissected, weighed, and photographed. […] For xenograft mouse model, 2×10^6 MDA-MB-468 cells were mixed with Matrigel (Corning, #354248) at a 1:1 ratio (Volume) and injected subcutaneous into 6-8-week-old female nude mice (Charles River, #088). […]

USP7 half-life upon treatment [1]: 15 h
Compound: O=C1CCC(N2Cc3c(CCCCCN4CCN(CCC(=O)Nc5ccc6c(=O)n(CC7(O)CCN(C(=O)C(CCCNC(=O)c8ccc9c(Cl)c%10c(nc9c8)CCCC%10)Cc8ccccc8)CC7)cnc6c5)CC4)cccc3C2=O)C(=O)N1 (stereo not drawn)
FOXM1 half-life upon treatment [2]: 3 h | tumor sizes and weights versus control [3]: no significant difference
